Assay results published in PMC5104768, “Effects of lactoferrin derived peptides on simulants of biological warfare agents” (2016).
In brackets after ≈: the same amount, converted by molar mass.

Legend:
[1] = system: Bacillus globigii (BM013); assay: Minimum bactericidal concentration (MBC)
B. globigii [2] = assay: DiSC3(5) membrane depolarization assay; details: 0-12.5 μM, 30 min, LFchimera statement at 3.1 μM, Fig. 2a
B. globigii [3] = assay: Propidium iodide (PI) membrane permeabilization assay; details: B. globigii ~10^8 CFU/ml in PPB, 10 μM PI, 1 h, 0.1-12.5 μM; Fig. 1a

Row | SMILES | MBC against B. globigii [1] [µM] | DiSC3(5) fluorescence (membrane depolarization), in words (B. globigii [2]) | PI fluorescence (membrane permeabilization), in words (B. globigii [3])
1 | CC[C@H](C)[C@H](NC(=O)[C@H](CC(C)C)NC(=O)[C@@H](N)CC(=O)O)C(=O)N[C@@H](Cc1c[nH]c2ccccc12)C(=O)N[C@@H](CCCCN)C(=O)N[C@@H](CC(C)C)C(=O)N[C@@H](CC(C)C)C(=O)N[C@@H](CO)C(=O)N[C@@H](CCCCN)C(=O)N[C@@H](C)C(=O)N[C@@H](CCC(N)=O)C(=O)N[C@@H](CCC(=O)O)C(=O)N[C@@H](CCCCN)C(=O)N[C@@H](Cc1ccccc1)C(=O)NCC(=O)N[C@@H](CCCCN)C(=O)N[C@@H](CC(N)=O)C(=O)N[C@@H](CCCCN)C(=O)N[C@@H](CO)C(=O)N[C@@H](CCCCN)C(=O)O | 1.6 (≈ 3.78 µg/mL) |  | 
2 | CC[C@H](C)[C@H](NC(=O)[C@H](CC(C)C)NC(=O)[C@@H](N)CC(=O)O)C(=O)N[C@@H](Cc1c[nH]c2ccccc12)C(=O)N[C@@H](CCCNC(=N)N)C(=O)N[C@@H](CC(C)C)C(=O)N[C@@H](CC(C)C)C(=O)N[C@@H](CO)C(=O)N[C@@H](CCCNC(=N)N)C(=O)N[C@@H](C)C(=O)N[C@@H](CCC(N)=O)C(=O)N[C@@H](CCC(=O)O)C(=O)N[C@@H](CCCNC(=N)N)C(=O)N[C@@H](Cc1ccccc1)C(=O)NCC(=O)N[C@@H](CCCCN)C(=O)N[C@@H](CC(N)=O)C(=O)N[C@@H](CCCNC(=N)N)C(=O)N[C@@H](CO)C(=O)N[C@@H](CCCNC(=N)N)C(=O)O | 0.8 (≈ 2 µg/mL) |  | 
3 | CC[C@H](C)[C@H](NC(=O)[C@H](CC(C)C)NC(=O)[C@@H](N)CC(=O)O)C(=O)N[C@@H](Cc1c[nH]c2ccccc12)C(=O)N[C@@H](CCCCN)C(=O)N[C@@H](CC(C)C)C(=O)N[C@@H](CC(C)C)C(=O)N[C@@H](CO)C(=O)N[C@@H](CCCCN)C(=O)N[C@@H](C)C(=O)N[C@@H](CCC(N)=O)C(=O)N[C@@H](CCC(=O)O)C(=O)N[C@@H](CCCCN)C(=O)N[C@@H](Cc1ccccc1)C(=O)NCC(=O)N[C@@H](CCCCN)C(=O)N[C@@H](CC(N)=O)C(=O)N[C@@H](CCCCN)C(=O)N[C@@H](CO)C(=O)N[C@@H](CCCNC(=N)N)C(=O)O | 1.6 (≈ 3.82 µg/mL) |  | 
4 | CC[C@H](C)[C@H](NC(=O)[C@H](CC(C)C)NC(=O)[C@@H](N)CC(=O)O)C(=O)N[C@@H](Cc1c[nH]c2ccccc12)C(=O)N[C@@H](CCCCN)C(=O)N[C@@H](CC(C)C)C(=O)N[C@@H](CC(C)C)C(=O)N[C@@H](CO)C(=O)N[C@@H](CCCCN)C(=O)N[C@@H](C)C(=O)N[C@@H](CCC(N)=O)C(=O)N[C@@H](CCC(=O)O)C(=O)N[C@@H](CCCCN)C(=O)N[C@@H](Cc1ccccc1)C(=O)NCC(=O)N[C@@H](CCCCN)C(=O)N[C@@H](CC(N)=O)C(=O)N[C@@H](CCCCN)C(=O)N[C@@H](CO)C(=O)N[C@@H](CCCNC(=N)N)C(=O)NCCCC[C@H](NC(=O)CNC(=O)[C@H](CC(C)C)NC(=O)[C@H](CCCCN)NC(=O)[C@H](CCCCN)NC(=O)[C@H](CCSC)NC(=O)[C@H](CCCNC(=N)N)NC(=O)[C@H](Cc1c[nH]c2ccccc12)NC(=O)[C@H](CCC(N)=O)NC(=O)[C@H](Cc1c[nH]c2ccccc12)NC(=O)[C@H](CCCNC(=N)N)NC(=O)[C@H](CCCNC(=N)N)NC(=O)[C@H](CS)NC(=O)[C@H](CCCCN)NC(=O)[C@@H](N)Cc1ccccc1)C(N)=O |  | relative high DiSC3(5) fluorescence | comparable to LFampin265–284
